Measured values taken from patent publication US20060004086A1, “Method of reducing Abeta42 and treating diseases” (Mayo Foundation for Medical Education and Research, priority 2000, published 2006).

Test system: Aβ42 secretion
Assay: Non-selective and selective COX-inhibitors tested for effect on Aβ42 levels in cell cultures (Table 1 summary)
Type: cell-based
Conditions: effect up to the highest conc. tested listed per drug in Table 1

For `Cc1cnc(NC(=O)C2=C(O)c3ccccc3S(=O)(=O)N2C)s1` [Meloxicam], the Aβ42/Aβ40 ratio was “no effect”.
